Only a part is listed here, and it is no random draw. Active and inactive are the calls of the source.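 The calls were made as follows: active = inhibition above the campaign mean plus 3 SD, with each screening campaign given its own cutoff (cut at about 60% in these data); inactive = the rest.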

Sequences of proteins named here, by UniProt entry; tags and fusion partners are left off.
UniProt Q15788, whole entry: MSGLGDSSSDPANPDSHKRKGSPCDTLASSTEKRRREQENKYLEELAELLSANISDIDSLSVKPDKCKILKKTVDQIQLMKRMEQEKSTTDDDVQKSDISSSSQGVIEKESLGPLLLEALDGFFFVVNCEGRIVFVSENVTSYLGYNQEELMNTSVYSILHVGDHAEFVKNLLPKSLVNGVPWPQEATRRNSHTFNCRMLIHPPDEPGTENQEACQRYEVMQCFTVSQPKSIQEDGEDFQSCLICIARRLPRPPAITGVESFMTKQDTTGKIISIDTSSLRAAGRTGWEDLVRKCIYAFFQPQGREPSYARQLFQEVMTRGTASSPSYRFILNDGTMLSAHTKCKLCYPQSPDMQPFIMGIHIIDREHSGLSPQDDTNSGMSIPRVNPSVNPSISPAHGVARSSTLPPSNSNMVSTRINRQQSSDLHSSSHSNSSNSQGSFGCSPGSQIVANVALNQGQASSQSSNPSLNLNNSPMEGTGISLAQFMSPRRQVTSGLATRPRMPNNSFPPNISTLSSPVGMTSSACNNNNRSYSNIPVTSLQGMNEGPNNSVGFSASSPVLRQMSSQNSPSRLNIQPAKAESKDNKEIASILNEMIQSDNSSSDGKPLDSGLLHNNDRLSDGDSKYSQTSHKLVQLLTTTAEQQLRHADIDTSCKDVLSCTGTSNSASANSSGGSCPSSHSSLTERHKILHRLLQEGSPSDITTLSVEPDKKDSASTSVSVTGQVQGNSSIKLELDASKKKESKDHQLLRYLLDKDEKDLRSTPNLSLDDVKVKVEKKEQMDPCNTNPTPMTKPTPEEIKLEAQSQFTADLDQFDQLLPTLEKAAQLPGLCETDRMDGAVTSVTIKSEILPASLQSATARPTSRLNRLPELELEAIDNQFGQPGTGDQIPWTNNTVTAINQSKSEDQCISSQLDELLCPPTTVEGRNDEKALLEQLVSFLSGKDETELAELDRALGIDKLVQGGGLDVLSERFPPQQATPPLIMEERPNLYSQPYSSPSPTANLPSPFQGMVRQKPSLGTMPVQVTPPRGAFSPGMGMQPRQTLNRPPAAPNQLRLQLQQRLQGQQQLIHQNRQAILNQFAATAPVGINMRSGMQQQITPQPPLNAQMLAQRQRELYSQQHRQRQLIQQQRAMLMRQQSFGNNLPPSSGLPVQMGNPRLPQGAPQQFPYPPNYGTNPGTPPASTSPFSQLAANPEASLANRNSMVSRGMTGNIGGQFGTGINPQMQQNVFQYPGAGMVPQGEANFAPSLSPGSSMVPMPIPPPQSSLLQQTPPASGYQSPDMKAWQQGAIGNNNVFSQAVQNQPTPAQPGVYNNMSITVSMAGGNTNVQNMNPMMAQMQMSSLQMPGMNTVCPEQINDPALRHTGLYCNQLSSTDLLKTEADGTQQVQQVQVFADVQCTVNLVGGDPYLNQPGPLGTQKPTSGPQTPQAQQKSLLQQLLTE

The assay has as its target Nuclear receptor coactivator 1 (Homo sapiens) (UniProt Q15788). Description: NCOA1 GAL4-fusion reporter inhibition – cell-based, luminescence, primary screen (AID 588354).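 Also: 0% = DMSO treated cells and 100% = gossypol at 36 µM.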 Conditions: HEK293 GAL4-SRC1 luciferase reporter, at 3.6 µM, active compounds read high.
As to `CP(=O)(Nc1cccc(Br)c1)Oc1ccccc1` (stereo unspecified), the inhibition is inactive: 2.94%.

For orientation: inhibition means the percentage by which the read-out fell short of the control.

The values are drawn from PubChem BioAssay AID588354 (The Scripps Research Institute Molecular Screening Center, 2011).
